The numbers were not newly measured in patent publication US20250025454A1 (priority 2021, published 2025), which cites them from elsewhere.

The target of the data set is optimized SARS-CoV-2 RdRp model (Severe acute respiratory syndrome coronavirus 2, UniProt P0DTD1). The note with it: cited from earlier work.

On to `NC(=O)c1ncn([C@@H]2O[C@H](CO)[C@@H](O)[C@H]2O)n1` [ribavirin], for which the “docking score reported by Elfiky” value was -7.8 kcal/mol.
